Reference: patent US9809653B2, “Anti-LAMP1 antibodies and antibody drug conjugates, and uses thereof” (SANOFI, priority 2012, dated 2017)

Molecular target: T1, Mouse LAMP1 (Mus musculus, UniProt P11438)
T1 construct: made in house; host or cells: HEK293 (293-F), transient expression, IMAC-purified
T1 sequence (P11438 with tags, fused parts or gaps): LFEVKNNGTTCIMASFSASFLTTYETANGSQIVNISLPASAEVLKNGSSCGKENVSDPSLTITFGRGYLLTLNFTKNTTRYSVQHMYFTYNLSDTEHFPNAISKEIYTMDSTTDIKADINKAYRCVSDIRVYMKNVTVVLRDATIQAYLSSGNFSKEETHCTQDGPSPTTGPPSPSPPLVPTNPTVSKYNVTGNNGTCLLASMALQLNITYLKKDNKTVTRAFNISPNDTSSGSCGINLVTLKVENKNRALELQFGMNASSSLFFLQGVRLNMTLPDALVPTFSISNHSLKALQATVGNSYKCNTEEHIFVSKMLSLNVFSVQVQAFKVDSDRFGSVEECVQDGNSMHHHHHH
Assay: ELISA on mouse LAMP1 extracellular domain
Assay type: binding
Text: The high level of glycosylation of the antigen required a specific approach to determine the binding site of the anti-LAMP1 mAbs on LAMP1. […] This absence of binding was used to design several chimeric LAMP1 proteins in which one or several of the LAMP1 domains (Loop1-Loop4) in the human construct were replaced by the murine counterpart. The absence of binding once the binding site of the antibody was replaced by the murine counterpart allowed for identification of the antibody binding side.
Secreted LAMP1 proteins described in example 6.2 were used to identify the binding domain to anti-LAMP1 mAbs by ELISA.

B1: chMAb3: chimeric antibody from MAb3, heavy chain SEQ ID NO: 49, light chain SEQ ID NO: 50 (antibody)
heavy: QIQLVQSGPELKKPGETVKISCKASGYIFTNYGMNWVKQAPGKGLKWMGWINTYTGESRYADDFKGRFALSLETSASTAYLQINNLENEDMATYFCAREDYYGNSPWFFDVWGAGTTVTVSSASTKGPSVFPLAPSSKSTSGGTAALGCLVKDYFPEPVTVSWNSGALTSGVHTFPAVLQSSGLYSLSSVVTVPSSSLGTQTYICNVNHKPSNTKVDKKV[not shown - human IgG1 Fc]
light: DIQMTQTTSSLSASLGDRVTISCNASQGINKYLNWYQQKPDGTVKLLIYYTSTLHSGVPSRFSGSGSGTDYSLTINNLEPEDIATYYCQQYTKLPFTFGSGTKLEIKRTVAAPSVFIFPPSDEQLKSGTASVVCLLNNFYPREAKVQWKVDNALQSGNSQESVTEQDSKDSTYSLSSTLTLSKADYEKHKVYACEVTHQGLSSPVTKSFNRGEC
modifications: HC chMAb3; LC chMAb3
EC50 (nM) Mouse LAMP1: No binding
